Values of other authors, collected in US20260185992A1, “METHODS FOR SELECTING AND TREATING PATIENTS WITH RETINAL DISEASE BASED ON COMPLEMENT PATHWAY HYPERACTIVITY” (Oak Bay Biosciences Inc., priority 2024, published 2026).

Test system: patients with ocular disease (Geographic Atrophy, AMD)
Details: Table 1, ocular disease indication; cited from earlier work

B1: Eculizumab: C5 inhibitor (antibody, chains of the INN, looked up)
heavy: QVQLVQSGAEVKKPGASVKVSCKASGYIFSNYWIQWVRQAPGQGLEWMGEILPGSGSTEYTENFKDRVTMTRDTSTSTVYMELSSLRSEDTAVYYCARYFFGSSPNWYFDVWGQGTLVTVSSASTKGPSVFPLAPCSRSTSESTAALGCLVKDYFPEPVTVSWNSGALTSGVHTFPAVLQSSGLYSLSSVVTVPSSNFGTQTYTCNVDHKPSNTKVDKTVERKCCVECPPCPAPPVAGPSVFLFPPKPKDTLMISRTPEVTCVVVDVSQEDPEVQFNWYVDGVEVHNAKTKPREEQFNSTYRVVSVLTVLHQDWLNGKEYKCKVSNKGLPSSIEKTISKAKGQPREPQVYTLPPSQEEMTKNQVSLTCLVKGFYPSDIAVEWESNGQPENNYKTTPPVLDSDGSFFLYSRLTVDKSRWQEGNVFSCSVMHEALHNHYTQKSLSLSLG
light: DIQMTQSPSSLSASVGDRVTITCGASENIYGALNWYQQKPGKAPKLLIYGATNLADGVPSRFSGSGSGTDFTLTISSLQPEDFATYYCQNVLNTPLTFGQGTKVEIKRTVAAPSVFIFPPSDEQLKSGTASVVCLLNNFYPREAKVQWKVDNALQSGNSQESVTEQDSKDSTYSLSSTLTLSKADYEKHKVYACEVTHQGLSSPVTKSFNRGEC
In the case of B1, the “Status (clinical trial outcome)” value is given as “Phase I/II Study; No”.
